One series has as its system guinea pigs. The series is described as follows: Inhibitory activity assay against ear swelling in guinea pigs (DMSO/ethanol inflammatory agent). The conditions noted are these: topical, 200 µL per ear; test compounds and glycyrrhetinic acid 40 mg/mL in absolute ethanol; hydrocortisone butyrate cream 1 mg/g; 45 min after modeling. The text has this: • 2.1 Animals: Ordinary grade guinea pigs, weighing about 300 g. • 2.2 Reagents: Inflammatory agent made from 80% dimethyl sulfoxide (DMSO) and 20% absolute ethanol; DMSO; absolute ethanol, analytical grade.
Ordinary grade guinea pigs were randomly divided into groups, with 10 animals in each group, half male and half female. The inner and outer sides of the left and right ears of the guinea pigs were shaved, and 4 points were marked on the medial side of the left ear margin. The thickness of these 4 points on the auricle of the guinea pigs was measured using a vernier caliper, and the average value was obtained as the baseline before administration. The corresponding drugs were applied dropwise to the auricles of the guinea pigs in each test group (Compound 1, Compound 2, Compound 3, Compound 9, Compound 16, Compound 17, Compound 18, Compound 21) and the glycyrrhetinic acid group, with 200 µL per ear. The blank control group and the model group were treated with the corresponding volume of absolute ethanol only. The positive control hydrocortisone butyrate group was treated with an equal volume of hydrocortisone butyrate cream. After 30 min of administration, the drugs were wiped off. The animals in the model group and the test groups were treated with the inflammatory agent on both sides of the left auricle (50 µL per ear). The blank control group was treated with the corresponding volume of normal saline only. At 45 min after modeling, the thickness of these 4 points was measured using a vernier caliper, and the average value was obtained. The difference was calculated as the ear swelling value of the guinea pigs. Inhibition rate of swelling value = (Swelling value of the model group - Swelling value of the sample group) / Swelling value of model group × 100%, wherein the sample group includes each test group, glycyrrhetinic acid group, and positive control hydrocortisone butyrate group.
• Test compounds and glycyrrhetinic acid: Dissolved in absolute ethanol to prepare a solution with a concentration of 40 mg/mL. • Positive control: Commercially available hydrocortisone butyrate cream (from Hubei Heng'an Fulin Pharmaceutical Co., Ltd., specification: 1 mg/g).

In a further series the test system is HaCaT cells. Put plainly: In vitro inhibition of ROS release assay (8 Gy X-ray, flow cytometry). The conditions noted are these: result in words. The procedure: • Culture medium: DMEM containing 10% FBS; • Test article: Compound 16; control drugs: triethanolamine, hydrocortisone butyrate; • Reagent: ROS assay kit (Beyotime); • Instruments: RS 2000·Pro 225 Rad Source X-ray irradiator; flow cytometer.
The cells were divided into a blank control group, a model group, a Compound 16 group, a triethanolamine group, and a hydrocortisone butyrate group, with 3 replicate wells per group. The cells were cultured in DMEM containing 10% FBS in a 37°C, 5% CO2 incubator. The blank control group and the model group were treated with the corresponding volume of blank solvent (DMSO) only. The Compound 16 group was treated with 0.5 µM Compound 16. The triethanolamine group was treated with 0.5 µM triethanolamine. The hydrocortisone butyrate group was treated with 10 nM hydrocortisone butyrate.
At the end of administration, the cells in the model group, the Compound 16 group, the triethanolamine group, and the hydrocortisone butyrate group were exposed to 8 Gy X-ray irradiation. The blank control group received no irradiation. The intracellular ROS levels in each group were detected by flow cytometry 24 h after irradiation, according to the instructions of the ROS assay kit.
(In general: A flow cytometer gives signals particle by particle.)

The nature of series [1]: Body weight in the atopic dermatitis assay. The conditions noted are these: for effect on the body weight of mice: result in words, atopic dermatitis model. The protocol: (§1) The backs of BALB/c mice were shaved. Except for the blank control group, the mice were topically treated with DNFB solution (solvent: mixture of acetone and olive oil, volume ratio 4:1) for sensitization and challenge. No treatment was administered on days 3 to 6. From day 7, the solution was applied once every 2 days for a total of 10 applications, and modeling was completed after the 10th application. The model animals were evenly divided into groups according to the observation scores of skin lesions, with 8 mice in each group. Subsequently, the test groups (Compound 1, Compound 16) received the corresponding drugs at 150 µL per time, twice daily. The model group received the corresponding volume of blank matrix (pimecrolimus cream matrix) at the same dosing frequency. The observation scores of skin lesions were recorded on days 3, 6, and 10 (six items were scored: erythema/darkening, edema/papules, exudation/crusting, erosion, lichenification/prurigo, and dryness, and the total score was the sum of the six individual scores; scoring was performed according to the SCORAD scoring criteria: scores 0 to 3, where score 0: none; score 1: mild; score 2: moderate; score 3: severe). Body weights were measured on days 0, 3, 6, and 10 after modeling.

The next series deals with RAW264.7 cells. Put plainly: Anti-inflammatory activity assay in cells (LPS-induced IL-1β content, ELISA). The conditions noted are these: LPS 100 ng/mL, 24 h. The protocol:
• 1.1 Cells: RAW264.7 cells, purchased from PROCELL, lot No.: JYBR1POD9R. • 1.2 Reagents: Lipopolysaccharide (LPS), purchased from SIGMA; DMEM cell culture medium, purchased from GIBCO; Mouse IL-1β ELISA Kit, purchased from Ruixin Bio.
RAW264.7 cells were seeded into a 96-well plate at 1×10^5 cells/well, with 100 µL of cell suspension added to each well. 50 µL of drugs at corresponding gradient concentrations (0.00128, 0.0064, 0.032, 0.16, 0.8, 4, 20, and 100 µM, respectively) were added to the wells of the test groups (Compounds 1 to 27) and the control drug groups (glycyrrhetinic acid and Comparative Compounds 1 to 10). The corresponding volume of culture medium was added to the wells of the blank control group and the model group. After 1 h of incubation, 50 µL of LPS (final LPS concentration of 100 ng/mL) was added to the wells of the model group, the control drug groups, and the test groups. After incubation in an incubator at 37°C and 5% CO2 for 24 h, the supernatant was collected by centrifugation at 1000 rpm for 5 min. The IL-1β content was determined according to the instructions of the kit, and the IC50 values were calculated.
A general note: In an ELISA, binding on a coated surface is turned into a signal by an enzyme label.

The test system of a further series is BALB/c mice. The series is described as follows: Atopic dermatitis assay (DNFB), SCORAD score. The conditions noted are these: for SCORAD score in the mouse atopic dermatitis model: result in words, compared with the model group; for Score (SCORAD): 3% cream, 150 µL twice daily. The procedure: • 4.1 Animals: BALB/c mice, female, 20+2 g. • 4.2 Reagent: 2,4-Dinitrofluorobenzene (DNFB).
as §1
Test compounds: The formulations were prepared with reference to pimecrolimus cream (test compound concentration: 3%).

pIC50: −log10 of the molar value.

In general, pIC50 refers to the IC50 on a negative log10 scale, so that one unit is a factor of ten. Low readings indicate a high IC50, high ones a low IC50. Turning to `CCN(CC)CCOC(=O)[C@@]1(C)CC[C@]2(C)CC[C@]3(C)C(=CC(=O)[C@@H]4[C@@]5(C)C=C(C#N)C(=O)C(C)(C)[C@@H]5CC[C@]43C)[C@@H]2C1`, the “Ear swelling inhibition rate” value in the series with guinea pigs is “B (greater than 40% and less than or equal to 70%)”. Moreover, the “intracellular ROS levels” value with HaCaT cells is recorded as “significantly reduce”. The “effect on the body weight of mice” value in series [1] was “no significant effect”. The molecule further gave a negative logarithm of the IC50 (pIC50) in the series with RAW264.7 cells above 7.70. Further, the “SCORAD score in the mouse atopic dermatitis model” value (“SCORAD score” for short) with BALB/c mice was “significantly reduce”.

Consider `CCN(CC)CCOC(=O)[C@@]1(C)CC[C@]2(C)CC[C@]3(C)C(=CC(=O)[C@@H]4[C@@]5(C)CCC(=O)C(C)(C)[C@@H]5CC[C@]43C)[C@@H]2C1`, for which, in the series on guinea pigs, the “Ear swelling inhibition rate” value is “A (greater than 70%)”. Moreover, the “intracellular ROS levels” value in the series on HaCaT cells was “significantly reduce”. Moreover, the “Body weight of animals” value in series [1] (Day 0) is 20.01 ± 0.84 g; in series [1] (Day 3), 19.45 ± 0.99 g; in series [1] (Day 6) it was 19.05 ± 1.16 g; in series [1] (Day 10), 18.86 ± 0.95 g. The “effect on the body weight of mice” value in series [1] was “no significant effect”. Further, the pIC50 with RAW264.7 cells was above 7.70. In the series with BALB/c mice (Day 0), the “Score (SCORAD)” value is recorded as 16.56 ± 0.50. Besides, in the series with BALB/c mice, the “SCORAD score” value is given as “significantly reduce”.

As for `CCN(CC)CCOC(=O)[C@@]1(C)CC[C@]2(C)CC[C@]3(C)C(=CC(=O)[C@@H]4[C@@]5(C)CCC(=O)C(C)(C)[C@@H]5CC[C@]43C)[C@H]2C1`, the “Ear swelling inhibition rate” value with guinea pigs is recorded as “A (greater than 70%)”. The “intracellular ROS levels” value in the series with HaCaT cells is on record as “significantly reduce”. Besides, the “effect on the body weight of mice” value in series [1] is reported as “no significant effect”. This molecule also had a pIC50 with RAW264.7 cells above 7.70. In the series with BALB/c mice, the “SCORAD score” value was “significantly reduce”.

As for “(2S,4aS,6aS,6bR,8aR,12aS,12bR,14bR)-11-chloro-2,4a,6a,6b,9,9,12a-heptamethyl-10,13-dioxo-1,2,3,4,4a,5,6,6a,6b,7,8,8a,9,10,12a,12b,13,14b-octadecahydropicene-2-carboxylate triethanolamine salt”, the “Ear swelling inhibition rate” value in the series on guinea pigs was “B (greater than 40% and less than or equal to 70%)”. Besides, the “intracellular ROS levels” value in the series on HaCaT cells is on record as “significantly reduce”. Moreover, the “effect on the body weight of mice” value in series [1] was “no significant effect”. Besides, the pIC50 in the series on RAW264.7 cells is above 7.70. In the series with BALB/c mice, the “SCORAD score” value was “significantly reduce”.

`CC1(C)C(=O)C(Cl)=C[C@]2(C)[C@H]3C(=O)C=C4[C@H]5C[C@@](C)(C(=O)O)CC[C@]5(C)CC[C@@]4(C)[C@]3(C)CC[C@@H]12`: in the series with guinea pigs, the “Ear swelling inhibition rate” value is recorded as “A (greater than 70%)”. In addition, the “intracellular ROS levels” value in the series with HaCaT cells is given as “significantly reduce”. Also, the “effect on the body weight of mice” value in series [1] is listed as “no significant effect”. The pIC50 in the series with RAW264.7 cells is above 7.70. Besides, the “SCORAD score” value in the series on BALB/c mice was “significantly reduce”.

As to `CN(C)c1nc2c(s1)C[C@]1(C)[C@H]3C(=O)C=C4[C@@H]5C[C@@](C)(C(=O)O)CC[C@]5(C)CC[C@@]4(C)[C@]3(C)CC[C@H]1C2(C)C`, the “Ear swelling inhibition rate” value with guinea pigs is “A (greater than 70%)”. Also, in the series on HaCaT cells, the “intracellular ROS levels” value is given as “significantly reduce”. Besides, the “effect on the body weight of mice” value in series [1] is given as “no significant effect”. In the series on RAW264.7 cells, the pIC50 was 7.00 to 7.70. Further, in the series with BALB/c mice, the “SCORAD score” value is given as “significantly reduce”.

Turning to `CCN(CC)CCOC(=O)[C@@]1(C)CC[C@]2(C)CC[C@]3(C)C(=CC(=O)[C@@H]4[C@@]5(C)CCC(=O)C(C)(C)[C@@H]5CC[C@]43C)[C@@H]2C1.Cl`, the “Ear swelling inhibition rate” value with guinea pigs was “B (greater than 40% and less than or equal to 70%)”. The “intracellular ROS levels” value in the series with HaCaT cells is “significantly reduce”. Also, in series [1], the “effect on the body weight of mice” value is “no significant effect”. For the same molecule, in the series with BALB/c mice, the “SCORAD score” value is recorded as “significantly reduce”.

In the case of `CC1(C)C(=O)C(Cl)=C[C@]2(C)[C@H]3C(=O)C=C4[C@@H]5C[C@@](C)(C(=O)O)CC[C@]5(C)CC[C@@]4(C)[C@]3(C)CC[C@@H]12`, the “Ear swelling inhibition rate” value in the series with guinea pigs is “A (greater than 70%)”. The “intracellular ROS levels” value in the series with HaCaT cells is “significantly reduce”. The “Body weight of animals” value is recorded as 20.25 ± 1.34 g in series [1] (Day 0), 19.91 ± 1.41 g in series [1] (Day 3), 19.88 ± 1.14 g in series [1] (Day 6) and 20.55 ± 1.23 g in series [1] (Day 10). In addition, in series [1], the “effect on the body weight of mice” value is given as “no significant effect”. Further, the pIC50 in the series with RAW264.7 cells is above 7.70. Moreover, the figures for the “Score (SCORAD)” value in the series on BALB/c mice (Day 0) and in the series on BALB/c mice (Day 6) were 16.69 ± 0.46 and 7.56 ± 1.47, respectively. Besides, the “SCORAD score” value in the series with BALB/c mice is given as “significantly reduce”.
